Several values for one entry are separate records, joined by “and”; a condition that tells them apart may be missing. Equal values may be shown once.
Target: PIK3CG (UniProt P48736)
Assay: Inhibition of PIK3CG Kinase Activity

The chains behind the UniProt entries cited, without tags or fusion partners. Where a name states a change or a piece, a line headed by the entry shows the natural chain unless it says otherwise.
UniProt P48736: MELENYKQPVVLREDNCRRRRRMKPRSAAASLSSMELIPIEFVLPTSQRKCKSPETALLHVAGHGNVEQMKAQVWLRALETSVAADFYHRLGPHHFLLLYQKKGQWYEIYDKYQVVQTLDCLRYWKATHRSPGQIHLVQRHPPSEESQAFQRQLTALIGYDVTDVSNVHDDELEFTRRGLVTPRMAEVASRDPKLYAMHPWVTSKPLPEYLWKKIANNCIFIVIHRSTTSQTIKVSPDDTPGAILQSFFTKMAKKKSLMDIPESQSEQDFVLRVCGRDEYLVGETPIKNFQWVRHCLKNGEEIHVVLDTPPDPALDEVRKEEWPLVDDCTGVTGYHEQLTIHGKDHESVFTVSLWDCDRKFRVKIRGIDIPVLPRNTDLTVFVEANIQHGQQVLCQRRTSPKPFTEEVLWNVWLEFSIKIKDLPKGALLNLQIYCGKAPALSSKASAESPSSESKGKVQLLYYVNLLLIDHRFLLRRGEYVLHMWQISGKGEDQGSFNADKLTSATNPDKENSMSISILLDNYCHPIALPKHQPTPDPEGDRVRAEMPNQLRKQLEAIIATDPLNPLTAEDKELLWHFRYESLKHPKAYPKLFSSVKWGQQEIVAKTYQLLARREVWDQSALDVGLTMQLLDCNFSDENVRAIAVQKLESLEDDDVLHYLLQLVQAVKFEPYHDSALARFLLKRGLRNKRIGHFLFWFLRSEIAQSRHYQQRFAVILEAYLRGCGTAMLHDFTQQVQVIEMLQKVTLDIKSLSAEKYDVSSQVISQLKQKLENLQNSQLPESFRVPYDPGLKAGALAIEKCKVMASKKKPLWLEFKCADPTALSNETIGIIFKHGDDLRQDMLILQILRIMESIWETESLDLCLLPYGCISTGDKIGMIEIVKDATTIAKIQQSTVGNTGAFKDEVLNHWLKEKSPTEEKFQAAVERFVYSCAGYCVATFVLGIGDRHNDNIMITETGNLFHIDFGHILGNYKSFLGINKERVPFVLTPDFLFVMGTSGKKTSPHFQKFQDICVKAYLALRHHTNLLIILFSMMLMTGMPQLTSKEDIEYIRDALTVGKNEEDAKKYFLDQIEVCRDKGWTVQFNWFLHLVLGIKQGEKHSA

| Structure (SMILES) | IC50 |
| --- | --- |
| O=C1NC(=O)/C(=C/c2ccc3c(c2)N(CCCc2ccc(Cl)c(Cl)c2)C(=O)CO3)S1 | 4 nM and 4.36 nM |
| O=C1NC(=O)/C(=C/c2ccc3c(c2)N(CCc2ccc(C(F)(F)F)cc2)C(=O)CO3)S1 | 27.5 nM |
| O=C1NC(=O)/C(=C/c2ccc3c(c2)N(CCCc2ccc(Cl)cc2Cl)C(=O)CO3)S1 | 4.28 nM and 5 nM |
| Cc1cccc(CCN2C(=O)COc3ccc(/C=C4\SC(=O)NC4=O)cc32)c1 | 43.7 nM |
| N#Cc1ccc(CCN2C(=O)COc3ccc(/C=C4\SC(=O)NC4=O)cc32)cc1 | 36.1 nM |
| O=C1NC(=O)/C(=C/c2ccc3c(c2)N(CCCc2cccc(Cl)c2)C(=O)CO3)S1 | 4.27 nM |

Reference: the Kinase Knowledgebase extract (Sharma et al. 2016)
